Results: PMC3921447, “Homologous and heterologous desensitization of guanylyl cyclase-B signaling in GH3 somatolactotropes” (Cell and Tissue Research, 2013)

How the values were obtained:
anterior pituitary = conditions: later attributed to contamination with gonadotrophin-releasing hormone (Abou-Samra et al. [1987]); ref Horvath et al. [1986]; cited from earlier work
Source text: Nevertheless, several pharmacological studies support a functional role of ANP, acting via GC-A receptors, in the anterior pituitary (McArdle et a ...

GC-A [1] = target: T1, GC-A (Rattus norvegicus, UniProt P18910); test: ANP time-course of total cGMP accumulation (rapid homologous desensitization) in GH3 cells; assay type: cell-based; conditions: 100 nM ANP, 1 mM IBMX
T1 construct: Evidence of homologous desensitization of endogenous GC-A- and GC-B-mediated signaling in GH3 cells; endogenous in cells; host or cells: GH3 rat somatolactotrope cells
T1 sequence (P18910 29-1057): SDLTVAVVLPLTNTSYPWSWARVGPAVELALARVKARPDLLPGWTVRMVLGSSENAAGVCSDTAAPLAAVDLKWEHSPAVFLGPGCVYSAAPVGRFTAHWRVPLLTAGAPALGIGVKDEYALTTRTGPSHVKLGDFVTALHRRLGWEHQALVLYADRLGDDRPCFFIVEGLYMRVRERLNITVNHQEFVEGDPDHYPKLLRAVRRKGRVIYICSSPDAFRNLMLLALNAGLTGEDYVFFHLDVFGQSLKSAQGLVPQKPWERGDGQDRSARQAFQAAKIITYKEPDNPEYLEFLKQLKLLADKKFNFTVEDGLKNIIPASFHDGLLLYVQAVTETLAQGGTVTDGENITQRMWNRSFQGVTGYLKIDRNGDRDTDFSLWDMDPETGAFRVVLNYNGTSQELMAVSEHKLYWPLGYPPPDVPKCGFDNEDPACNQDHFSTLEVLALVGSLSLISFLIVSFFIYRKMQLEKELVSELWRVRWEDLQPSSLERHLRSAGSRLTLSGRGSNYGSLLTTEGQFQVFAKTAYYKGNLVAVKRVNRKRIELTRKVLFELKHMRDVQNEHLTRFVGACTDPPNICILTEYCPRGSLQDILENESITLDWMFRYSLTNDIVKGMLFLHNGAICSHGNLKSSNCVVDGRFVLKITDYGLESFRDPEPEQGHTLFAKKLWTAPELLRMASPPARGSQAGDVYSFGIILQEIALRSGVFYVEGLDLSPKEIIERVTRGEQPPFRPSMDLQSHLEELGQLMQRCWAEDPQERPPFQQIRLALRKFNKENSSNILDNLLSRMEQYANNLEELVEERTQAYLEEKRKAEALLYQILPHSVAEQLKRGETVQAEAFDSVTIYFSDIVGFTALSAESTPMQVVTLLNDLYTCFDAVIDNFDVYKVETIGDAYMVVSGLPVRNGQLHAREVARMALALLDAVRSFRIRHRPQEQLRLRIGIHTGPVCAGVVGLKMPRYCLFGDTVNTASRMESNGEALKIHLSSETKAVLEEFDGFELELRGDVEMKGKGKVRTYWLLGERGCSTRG
Protocol: To characterize the activity of these receptors further , a series of experiments was performed to examine mechanisms of receptor desensitization. Total cGMP accumulation was measured to determine the changes in activity of the GC-A and GC-B receptors when treated over a short time-course with their native ligands, namely ANP and CNP, respectively. GH3 cells were plated at 3 × 10^5 cells/well in a 24-well plate, treated with 100 nM of either ANP or CNP in the presence of the phosphodiesterase inhibitor IBMX (1 mM) for 0 to 15 min and assayed for total cGMP concentration (Fig. 2a, b). […] In another experiment performed with 100 nM ANP instead of CNP, a rapid increase in cGMP accumulation (7.91 ± 0.9 to 164.31 ± 9.1pmol/ml per milligram protein) occurred between 0 and 5 min.
Fig. 2 Rapid homologous desensitization of CNP-dependent but not ANP-dependent cGMP accumulation in GH3 cells. Cells were treated with PSS containing either (a) 100 nM CNP or (b) 100 nM ANP for 0–15 min in the presence of 1 mM IBMX.

GC-B = conditions: ref Suga et al. [1992]; cited from earlier work
Source text: (§1) As activation of either GC-B or GC-A signaling leads to an increase in cGMP concentrations, we examined whether stimulation of each receptor would lead to the desensitization of the other receptor.

αT3-1 cells = conditions: ref Fowkes et al. [2000]; cited from earlier work
Source text: as §1

GC-A [2] = target: T1, GC-A; test: Agonist-induced GC-A internalization by confocal immunofluorescence in GH3 cells; assay type: cell-based; conditions: 100 nM ANP, 0-4 h; n = 3; Fig. 5d-f
Protocol: GH3 cells were mounted on poly-L-lysine-coated coverslips and treated with either 0 or 100nM ANP or CNP in PSS during the indicated time points. Following treatment, cells were fixed with 4 % (w/v) formaldehyde for 10 min at room temperature and permeabilized with buffer (1 % [v/v] Tween-20 in 50 ml phosphate-buffered saline [PBS]) before incubation for 10 min at room temperature. Cells were then blocked with […] sodium azide dissolved in 92 % PBS, 3 % FCS and 5 % Tween-20 (v/v) for 20 min at room temperature, washed, then exposed to 1:200 diluted primary antibody solution (GC-A or GC-B, plus 0.1 % FCS and 0.1 % Tween-20) for 16 h at 4 °C. […] Following three PBS washes and a final 5-min PBS immersion at room temperature, the slides were mounted in Vectorshield (Vector Laboratories, Peterborough, UK) on standard VWR (VWR International, Leicestershire, UK) slides ready for analysis. A Leica SPS confocal scanning laser microscope was used to capture the staining, which was analyzed with Leica SPS software (Leica Microsystems, Milton Keynes, UK). […]
Fig. 5 Lack of ligand-dependent internalization of GC-B or GC-A in GH3 somatolactotrope cells. […] GC-A and GC-B immunoreactivity was detected by using Alexa488-conjugated secondary antibodies (green), whereas Alexa635-conjugated phalloidin was used to detect the actin cytoskeleton (red). […]

SMILES: CC[C@H](C)[C@@H]1NC(=O)[C@H](CCCNC(=N)N)NC(=O)[C@H](CC(=O)O)NC(=O)[C@H]([C@@H](C)CC)NC(=O)[C@H](CCCNC(=N)N)NC(=O)CNC(=O)CNC(=O)[C@H](Cc2ccccc2)NC(=O)[C@@H](NC(=O)[C@H](CO)NC(=O)[C@H](CO)NC(=O)[C@H](CCCNC(=N)N)NC(=O)[C@H](CCCNC(=N)N)NC(=O)[C@H](CC(C)C)NC(=O)[C@@H](N)CO)CSSC[C@@H](C(=O)N[C@@H](CC(N)=O)C(=O)N[C@@H](CO)C(=O)N[C@@H](Cc2ccccc2)C(=O)N[C@@H](CCCNC(=N)N)C(=O)N[C@@H](Cc2ccc(O)cc2)C(=O)O)NC(=O)CNC(=O)[C@H](CC(C)C)NC(=O)CNC(=O)[C@H](CO)NC(=O)[C@H](CCC(N)=O)NC(=O)[C@H](C)NC(=O)CNC1=O [ANP, atrial natriuretic peptide]
- gonadotropin secretion (anterior pituitary): reported to act as a gonadotropin secretagog
- total cGMP accumulation, 0 min (GC-A [1]; 0 min (start of time-course), mean ± SEM, n = 3 in triplicate): 7.91 ± 0.9 pmol/ml per milligram protein
- maintenance of the initial rate of cGMP accumulation (GC-A [1]; 0-15 min): initial rate of cGMP accumulation was maintained for at least 15 min
- total cGMP accumulation, 5 min (GC-A [1]; 5 min, mean ± SEM, n = 3 in triplicate): 164.31 ± 9.1 pmol/ml per milligram protein
- activation of the reciprocal receptor (GC-B): can activate the reciprocal receptor, albeit only at pharmacological concentrations
- desensitization of the other receptor (αT3-1 cells): fail to desensitize the other receptor
- GC-A internalization (GC-A [2]): did not demonstrate any observable GC-B or GC-A internalization
